Experimental data from ChEMBL document CHEMBL5096202, “Carbon-silicon switch led to the discovery of novel synthetic cannabinoids with therapeutic effects in a mouse model of multiple sclerosis” (Eur J Med Chem, 2021).

Chains of the proteins cited; added tags and fusions are not shown.
UniProt P34972, whole entry: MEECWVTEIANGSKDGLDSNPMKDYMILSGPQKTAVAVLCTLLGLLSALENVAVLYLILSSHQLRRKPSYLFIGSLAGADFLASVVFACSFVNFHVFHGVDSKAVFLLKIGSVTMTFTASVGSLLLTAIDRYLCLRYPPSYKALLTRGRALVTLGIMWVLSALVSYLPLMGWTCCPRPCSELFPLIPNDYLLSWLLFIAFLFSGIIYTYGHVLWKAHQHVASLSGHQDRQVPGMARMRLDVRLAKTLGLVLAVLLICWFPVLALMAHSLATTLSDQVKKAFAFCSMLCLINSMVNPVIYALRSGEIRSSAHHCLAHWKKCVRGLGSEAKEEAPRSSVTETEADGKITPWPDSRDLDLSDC

What was measured:
[1] = target: T1, Cannabinoid receptor 2 (Homo sapiens, UniProt P34972); test: Agonist activity at recombinant human CB2 receptor expressed in CHO cells assessed as inhibition of forskolin-induced cAMP accumulation preincubated for 15 mins followed by forskolin stimulation and measured after 15 mins by HTRF assay; assay type: functional, cell-based
[2] = target: T1, Cannabinoid receptor 2; test: Displacement of [3H]-CP55940 from recombinant human CB2 receptor expressed in CHO cells assessed as inhibition constant incubated for 120 mins by radioligand binding assay; assay type: cell-based

**Q.** Which results are given for `CCCCCCC(C)(C)c1cc(OC)c([C@H]2C=C(CO)[C@H]3C[C@@H]2C3(C)C)c(OC)c1`?
**A.** EC50 [1]: 75.5 nM; Ki [2]: 43.6 nM
